# A549 viability = counter-screen for Nrf2 inhibitors: cytotoxicity in A549 cells; A549 ARE-Fluc cells, CellTiter-Fluor viability, 18-24 h; Potency, µM (doses to about 46 µM), for the others: at the top dose activity change, negative = cytotoxicity, actives largely listed as inhibitors; 0.16% of 390,000 active; AID 504648; also: potency is read from the fitted curve at half-maximal effect; % is scaled to controls: 0 for no effect and ±100 for the full control effect
#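 A549 ARE_Fluc cells in 5% FBS OPTI-MEM were exposed to compounds in concentration-response for 18-24 h at 37 deg C. Viability was read by CellTiter-Fluor fluorescence (Ex 405/Em 525) after 30 min, before the luciferase read.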
# Nrf2 inh = inhibitors of Nrf2 signaling. 2.1% of 360,000 active. Potency, µM (top dose mostly 46 µM), for inactives: at the highest dose activity change, negative = inhibition, usual class: inhibitors. A549 ARE-Fluc reporter, luciferase luminescence, 18-24 h; also: potency is read from the fitted curve at half-maximal effect; % is scaled to controls: 0 for no effect and ±100 for the full control effect; nearly all actives have a fitted effect of over 60% in size
#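 Cells were seeded and rested 2 h, then exposed to compounds for 18-24 h. CellTiter-Fluor was read first as a viability measure. BugLite was added 15 min before the final luminescent read of ARE-luciferase activity in A549 cells.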
# ClpP mod = qHTS Assay for Activators of ClpP | ATP-dependent Clp protease proteolytic subunit (Bacillus subtilis (strain 168)), P80244 | purified B. subtilis ClpP, FRET peptide cleavage, 20 min | Potency, µM (top dose mostly 57.5 µM), without a hit: top-dose activity change, negative = active | 1.9% of 340,000 active | AID 651965, 2013; active = well fitted falling curve with a large enough effect; inconclusive = small, poorly fitted or top-dose-only effect; inactive = no such curve, though single readings can be large or run the other way; also: potency is read from the fitted curve at half-maximal effect; the source files actives as falling curves though it sought activators and does not explain the sign; nearly all actives have a fitted effect of over 65% in size
#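 FRET quenching reversal measured ClpP activation: 10 microg/mL B. subtilis ClpP at pH 8 with the FRET-FV decapeptide, read at 430 nm after 320 nm excitation. The 20-min minus 0-min signal was scaled between DMSO/no-enzyme wells and ADEP (5.8 microM final).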
# TCR activator = activates T cell receptor signaling | primary human leukocytes, anti-CD3, IL-2 HTRF, 48 h | Potency, µM (titrated, usually from 9.22 µM), inactives show at the highest dose activation of IL-2 secretion, usual class: activators | 330,000 tested, under 10 active; also: % of control where 0% means no effect
#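 Human primary leukocytes + a-CD3 beads + cpd, 48 hr; IL-2 in supernatant by HTRF (ex 320nm / em 665nm). No co-stimulatory signal supplied.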
# Nrf2 ARE act = activates Nrf2 signaling. AREc32 ARE-luciferase reporter (MCF7-derived line), luminescence, 24 h. Potency, µM (top dose mostly 46.1 µM), for inactives: at the highest dose activation, most hits filed as activators. 0.31% of 410,000 active. AID 624171; also: potency is read from the fitted curve at half-maximal effect; % of control where 0% means no effect; nearly all actives have a fitted effect of over 65% in size
#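 For detection, Steady-Glo was added and plates sat 30 min at RT; before that, AREc32_Fluc cells grown overnight in OPTI-MEM/5% FBS had been treated with 23 nL compound for 24 hr at 37 deg C.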
# miR-21 reporter = miR-21 reporter, rising signal | HeLa miR-21 FLuc reporter, luciferase, 48 h | Potency, µM (doses to about 38.3 µM), inactives show at the top dose reporter change, positive = more light | 340,000 tested, under 10 active | AID 2288; active = well fitted rising curve with a large enough effect; inconclusive = small, poorly fitted or top-dose-only effect; inactive = no such curve, though single readings can be large or run the other way;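 note: % of control where 0% means no effect; miR-21 action dims this reporter so a rising signal means less miR-21 action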
#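 HeLa cells endogenously expressing miR-21, stably carrying CMV-driven firefly luciferase with a downstream miR-21 binding site, 2000 cells/well. Titrations up to approximately 40 uM, 48 hours; luciferase luminescence read.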
# * hit, by the source's call; ? = inconclusive; · = not tested or not shown; [ ] = another dose, or the depositor's remark. Hits are enriched below; roughly 3.7% of the tested compounds scored in any of these assays. Unless noted, calls follow the shape of the dose curve; as a rule, active = well fitted curve in the direction sought with a large enough effect; inconclusive = small, poorly fitted or top-dose-only effect, or another doubt; inactive = no such curve, though single readings can be large; an effect the other way counts as inactive or inconclusive.
[1] Oc1ccc(/C=C/c2nc(-c3ccccc3O)n(-c3ccccc3)n2)cc1
[2] Oc1ccccc1-c1nc(/C=C/c2ccccc2)nn1-c1ccccc1
[3] O=C(Nc1cccc(C(F)(F)F)c1)c1cnn(-c2cccc(F)c2)c1C1CCNCC1
[4] CC(=O)Oc1c(/C=C(\C#N)C(N)=O)[nH]c2ccccc12
[5] O=C(C1=NOC2(C1)C(=O)Nc1ccccc12)N1CCOCC1 (configuration not stated)
[6] CCOC(=O)c1sc(-c2ccc(F)cc2)cc1NC(=O)Nc1ccccc1OC
[7] COC(=O)c1sc(-c2ccccc2)cc1NC(=O)Nc1ccccc1Cl
[8] COC(=O)c1sc(-c2ccccc2)cc1NC(=O)Nc1ccc(F)cc1
[9] CSc1ccccc1NC(=O)Nc1ccc(Cl)cc1
[10] COC(=O)c1sc(-c2ccccc2)cc1NC(=O)Nc1ccc(Cl)cc1
entry no.,1,2,3,4,5,6,7,8,9,10
Nrf2 ARE act,4.1%,8.2%,4.7%,-2.8%,-0.9%,2.4%,-0.4%,0.1%,5.0%,-0.6%
Nrf2 inh,7.31µM*,-11.7%,?,-16.0%,·,-20.1%,-28.7%,-28.9%,7.31µM*,?
miR-21 reporter,1.3%,-26.6%,0.1%,24.8%,·,-4.3%,24.4%,7.7%,-9.4%,6.0%
TCR activator,-2.7%,-1.0%[46.1 µM],·,-0.6%[46.1 µM],·,3.0%[46.1 µM],·,·,·,·
ClpP mod,-21.7%,?,1.9%,25.1µM*,1.4%,17.8µM*,7.5%,31.6µM*,0.0%,17.8µM*
A549 viability,?,-0.5%,-17.5%,-9.3%,·,9.1%,16.5%,0.3%,22.8%[1.84 µM],-1.3%

[11] C#CCn1cc2c(c1-c1ccccc1)c(=O)n(C)c(=O)n2C
[12] O=C1CCc2cc(S(=O)(=O)Nc3cccc(B(O)O)c3)ccc2N1
[13] CS(=O)(=O)c1ccc(S(=O)CC(=O)OCc2ccccc2)c([N+](=O)[O-])c1 (configuration not stated)
[14] O=C(CS(=O)c1ccc(C(F)(F)F)cc1[N+](=O)[O-])Oc1ccccc1 (configuration not stated)
[15] Cc1ccc(-n2nc3c(c2NC(=O)c2ccco2)CS(=O)C3)c(C)c1 (configuration not stated)
[16] CCc1ccc(NC(=O)c2sc3nc(C)c(Cl)c(C)c3c2N)cc1
[17] Cc1nc(Cl)sc1C(=O)Nc1ccccc1
[18] Cc1nc(Cl)sc1C(=O)Nc1ccc(Cl)cc1
[19] O=C(C[C@H]1CC[C@H](NC(=O)Nc2ccccc2F)[C@@H](CO)O1)NCc1ccc(-c2ccccc2)cc1
[20] CCN1C(=O)c2cccc3c(S(=O)(=O)N(C(=O)c4ccncc4)c4ccc(OC)cc4)ccc1c23
entry no.,11,12,13,14,15,16,17,18,19,20
Nrf2 ARE act,-0.3%,·,?,?,0.2%,-0.7%,?,?,·,2.4%
Nrf2 inh,·,?,18.4µM*,?,9.2%,3.66µM*,1.9%,?,·,-28.9%
miR-21 reporter,·,·,?,?,·,-46.1%,-20.4%,-38.2%,·,9.7%
TCR activator,·,·,-4.1%,-5.1%,5.0%,·,-0.1%[46.1 µM],-17.7%[46.1 µM],·,-0.8%[46.1 µM]
ClpP mod,?,·,·,-1.9%,25.1µM*,?,0.1%,28.2µM*,-1.8%,?
A549 viability,·,-5.8%,?,-10.2%,1.4%,2.7%,-0.3%,3.5%,·,-3.9%

# Rewritten field by field: part of the list above
[17] Cc1nc(Cl)sc1C(=O)Nc1ccccc1
  Nrf2 ARE act: ?; Nrf2 inh: 1.9%; miR-21 reporter: -20.4%; TCR activator: -0.1%[46.1 µM]; ClpP mod: 0.1%; A549 viability: -0.3%
[18] Cc1nc(Cl)sc1C(=O)Nc1ccc(Cl)cc1
  Nrf2 ARE act: ?; Nrf2 inh: ?; miR-21 reporter: -38.2%; TCR activator: -17.7%[46.1 µM]; ClpP mod: 28.2µM*; A549 viability: 3.5%

# Other records.
[21] CCN1C(=O)c2cccc3c(S(=O)(=O)N(C(=O)c4cccnc4)c4ccc(OC)cc4)ccc1c23
[22] CCC(C)NC(=O)/C(=C/c1ccco1)c1ccccc1 (configuration not stated)
[23] CC(C)NC(=O)/C(=C/c1ccco1)c1ccccc1
[24] O=C(c1ccccc1)N1CCN2C(=O)c3ccccc3C12c1ccc(Cl)cc1 (configuration not stated)
[25] CC1CCCCN1C(=O)COC(=O)C1CCN(S(=O)(=O)c2c(Cl)cccc2Cl)CC1 (configuration not stated)
[26] CCOC(=O)c1cc2c(ccn2C)n1Cc1cc(C)ccc1C
[27] CC(C)OC(=O)c1cc2c(ccn2C)n1CC(=O)N(Cc1ccccc1)c1ccccc1
[28] CC1(C)Cc2c(c(-c3ccco3)nc3sc4c(NCC5CCCO5)ncnc4c23)CO1 (configuration not stated)
[29] CC1(C)Cc2c(c(N3CCOCC3)nc3sc4c(NCc5ccco5)nnnc4c23)CS1
[30] CC(C)CNc1nnnc2c1sc1nc(N3CCOCC3)c3c(c12)CC(C)(C)SC3
entry no.,21,22,23,24,25,26,27,28,29,30
Nrf2 ARE act,3.7%,11.5%,2.3%,0.3%,-0.3%,0.1%,0.3%,3.6%,4.6%,0.2%
Nrf2 inh,?,-14.9%,15.5%,13µM*,3.7%,-14.7%,?,2.3%,?,13µM*
miR-21 reporter,16.4%,-6.3%,-6.2%,-3.7%,1.5%,-8.4%,20.7%,-12.9%,-17.5%,-3.5%
TCR activator,-3.7%[46.1 µM],1.7%,-5.2%,3.8%,1.5%,4.0%,-0.7%[46.1 µM],-2.9%[46.1 µM],-3.8%,4.8%
ClpP mod,35.5µM*,25.1µM*,-2.5%,0.7%,15.8µM*,-15.2%,28.2µM*,15.8µM*,-1.7%,-1.1%
A549 viability,2.7%,-3.0%,5.9%,-4.7%,-1.5%,-18.3%,?,10.2%,-11.1%,-16.6%

[31] CC(C)CNc1ncnc2c1sc1nc(N3CCOCC3)c3c(c12)CC(C)(C)OC3
[32] Cc1ccnc(NC(=O)c2ccc(NS(=O)(=O)/C=C/c3ccccc3)cc2)c1
[33] Cc1cccnc1NC(=O)c1ccc(NS(=O)(=O)/C=C/c2ccccc2)cc1
[34] O=C(Nc1nc(=O)c2ccccc2s1)c1ccccc1
[35] CNC(=O)COC(=O)c1cc2c(C)nn(-c3ccc(F)cc3)c2s1
[36] Cc1nn(-c2ccc(F)cc2)c2sc(C(=O)N3CCCCCC3)cc12
[37] O=C(c1ccccc1O)N(Cc1ccco1)Cc1ccco1
[38] Cc1cc(C)cc(N(CCC#N)C(=O)CSC2=Nc3ccccc3C3CC=NN23)c1 (configuration not stated)
[39] N#Cc1ccccc1NC(=O)CSC1=Nc2ccccc2C2CC=NN12 (configuration not stated)
[40] O=C(CSC1=Nc2ccccc2C2CC=NN12)NCc1ccco1 (configuration not stated)
[41] Cc1cc(C)c(OCC(=O)Nc2ccc(N3CCOCC3)cc2)c(Br)c1
[42] CCN(C(=O)COC(=O)CCCOc1ccccc1)c1c(N)n(Cc2ccccc2)c(=O)[nH]c1=O
[43] COc1ccc(-n2nnnc2-c2cnc(N3CCCC3)nc2C(F)(F)F)cc1
entry no.,31,32,33,34,35,36,37,38,39,40,41,42,43
Nrf2 ARE act,0.1%,4.2%,2.6%,2µM*,-0.4%,-0.7%,·,6.0%,4.9%,0.631µM*,·,-0.4%,3.9%
Nrf2 inh,4.0%,-5.4%,-10.7%,?,6.9%,?,12.4%,23.1µM*,-18.7%,?,·,0.6%,18.4µM*
miR-21 reporter,-3.7%,·,·,-42.1%,-1.7%,-2.6%,·,-12.8%,-0.1%,·,-2.1%,·,21.5%
TCR activator,4.4%,2.5%,1.4%,-4.4%,-2.5%,-0.3%,·,-1.7%,-1.0%,2.5%[46.1 µM],·,-0.7%,-6.8%
ClpP mod,6.31µM*,28.2µM*,1.6%,-5.5%,35.5µM*,-1.5%,·,·,·,·,·,-1.8%,-4.7%
A549 viability,0.9%,-8.5%,2.4%,-1.6%,-3.8%,0.7%,2.7%,?,1.2%,-20.5%,·,14.0%,-23.5%

# Assay outcomes (PubChem BioAssay)
